{"source": "PubChem BioAssay AID1846", "about": "(The Scripps Research Institute Molecular Screening Center, 2009)", "note": "Only a part is listed here, and it is no random draw. Active and inactive are the calls of the source. Rule as the data show it: active = inhibition above about 18%; inactive = the rest."}
{"biological_target": "Heat shock protein HSP 90-alpha (Homo sapiens) (UniProt P07900)", "assay": "HSP90 inhibitors, confirmation, cell lysate, luminescence (AID 1846);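 also: 0% = vehicle wells and 100% = reference inhibitor wells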", "settings": "rabbit reticulocyte lysate, luciferase refolding luminescence, 3 h; at 5.9 µM; stronger effect = higher value"}
{"compound": "O=P(Nc1nccs1)(c1ccccc1)c1nc2ccccc2s1", "note": "(configuration not stated)", "inhibition": "active: 70.1%"}
{"compound": "O=C(O)c1ccccc1[As](=O)(O)O", "inhibition": "active: 74.7%"}
